From patent US12383623B2, “Liquid pharmaceutical compositions of polypeptide conjugates and methods of uses thereof” (BEIJING QL BIOPHARMACEUTICAL CO., LTD., priority 2022, dated 2025)

Test: Pharmacokinetics in cynomolgus monkeys, intravenous
Type: in vivo
Conditions: i.v., 4 nmol/kg semaglutide, 5 nmol/kg Molecule 019

**Q.** With Semaglutide [reference compound] as the substance, how does the Cl read?
**A.** 1.56 mL/h/kg

**Q.** What about the Vz of the same substance?
**A.** 0.09 L/kg
